Consider 13 compounds from PMC11370232, “Repurposing of a library for high-content screening of inhibitors against Echinococcus granulosus” (Parasites & Vectors, 2024).

SMILES strings stand for the structures. Counter-ions that a name gives are not always drawn. Like-named read-outs stand apart in the source and are kept apart here.

This assay relates to E. granulosus PSCs. The assay can be described thus: microbe, parasite or virus in culture. Particulars: Echinococcus granulosus; for killing at 0.5 µM / killing at 2 µM / killing at 10 µM / killing at 50 µM: 72 h.
Where [1] appears, read: read-out: Anti-echinococcus activity % of death, 0.5uM.
Where [2] appears, read: read-out: Anti-echinococcus activity % of death, 2uM.
Setting [3] is: read-out: Anti-echinococcus activity % of death, 10uM.
[4] abbreviates: read-out: Anti-echinococcus activity % of death, 50uM.
Where [5] appears, read: read-out: Anti-echinococcus activity % of death.

`C=C1C(=O)O[C@@H]2[C@H]3C(C)=CC[C@@]34O[C@@]4(C)CC[C@@H]12` [Arglabin]: the mortality at 0.5 µM under setting [1] came to 0%. The mortality at 2 µM under setting [2] turned out to be 0%. Also, the mortality at 10 µM under setting [3] was determined as 0%. For the same compound, under setting [4], the mortality at 50 µM was 100%.
For the compound `COc1cc2c(Oc3ccc(NC(=O)C4(C(=O)Nc5ccc(F)cc5)CC4)cc3F)ccnc2cc1OCCCN1CCOCC1` [Foretinib, reference compound], where the note is “read-out: Anti-echinicoccus activity, Dose confirmaiton 0.5uM”, the killing at 0.5 µM was determined as 0%. Besides, the killing at 2 µM (read-out: Anti-echinicoccus activity, Dose confirmaiton 2uM) came out at 0%. For the same compound, where the note is “read-out: Anti-echinicoccus activity, Dose confirmaiton 10uM”, the killing at 10 µM is 0%. Also, the killing at 50 µM was 100% (read-out: Anti-echinicoccus activity, Dose confirmaiton 50uM) and 100% (read-out: Anti-echinicoccus activity, Initiate hits 50uM). Further, the mortality at 0.5 µM (read-out: Anti-echinococcus activity % of death, 0.5uM, E. granulosus PSCs, compound at 0.5uM) amounted to 0%. For the same compound, under “read-out: Anti-echinococcus activity % of death, 2uM, E. granulosus PSCs, compound at 2uM”, the mortality at 2 µM was determined as 0%. Moreover, where the note is “read-out: Anti-echinococcus activity % of death, 10uM, E. granulosus PSCs, compound at 10uM”, the mortality at 10 µM was 0%. The mortality at 50 µM (read-out: Anti-echinococcus activity % of death, 50uM, E. granulosus PSCs, compound at 50uM) amounted to 100%.
Regarding `CN1CCN(CCCN2c3ccccc3Sc3ccc(C(F)(F)F)cc32)CC1` [Trifluoperazine hydrochloride], the mortality at 0.5 µM under setting [1] came to 0%. Further, under setting [2], the mortality at 2 µM turned out to be 0%. The mortality at 10 µM under setting [3] came to 0%. Also, the mortality at 50 µM under setting [4] was 100%.
`O=C1NC(=O)/C(=C\c2ccccc2)C2=C1CCCC2` [TESIMIDE]: under setting [5], the mortality at 0.5 µM was found to be 0%, the mortality at 2 µM amounted to 0%, the mortality at 10 µM is 0% and the mortality at 50 µM was found to be 100%.
Regarding `C=CC(=O)Nc1cc2c(Nc3ccc(F)c(Cl)c3)ncnc2cc1C#CC(C)(C)N1CCN(C)CC1` [MP-412], under setting [1], the mortality at 0.5 µM amounted to 0%. Moreover, under setting [2], the mortality at 2 µM stood at 0%. For the same compound, the mortality at 10 µM under setting [3] amounted to 100%. Under setting [4], the mortality at 50 µM came out at 100%.
In the case of `CC(=O)Oc1cc(C)c(OC(C)=O)c2ccccc12` [ACETOMENAPHTHONE], the mortality at 0.5 µM under setting [1] amounted to 0%. Further, the mortality at 2 µM under setting [2] came out at 0%. In addition, under setting [3], the mortality at 10 µM was found to be 60%. Also, under setting [4], the mortality at 50 µM came out at 100%.
For `C[C@@H](NCCCc1cccc(C(F)(F)F)c1)c1cccc2ccccc12` [cinacalcet hydrochloride], under setting [5], the mortality at 0.5 µM was found to be 0%, the mortality at 2 µM worked out at 0%, the mortality at 10 µM is 0% and the mortality at 50 µM was determined as 100%.
For `Cc1ccc(C(=O)Nc2ccc(CN3CCN(C)CC3)c(C(F)(F)F)c2)cc1C#Cc1cnc2cccnn12` [Ponatinib], the mortality at 0.5 µM under setting [1] came to 0%. Further, the mortality at 2 µM under setting [2] came to 0%. In addition, the mortality at 10 µM under setting [3] is 20%. The mortality at 50 µM under setting [4] is 100%.
As for `CC(C)Oc1ccc(-c2nc(-c3cccc4c3CC[C@@H]4NCCO)no2)cc1C#N` [Ozanimod], under setting [5], the mortality at 0.5 µM was found to be 0%, the mortality at 2 µM was 0%, the mortality at 10 µM worked out at 0% and the mortality at 50 µM came to 100%.
On to `CCCCC(CC)CNC(=N)NC(=N)NCCCCCCNC(=N)NC(=N)NCC(CC)CCCC` (stereo not shown) [ALEXIDINE], for which, under setting [1], the mortality at 0.5 µM worked out at 0%. Moreover, the mortality at 2 µM under setting [2] is 0%. Further, the mortality at 10 µM under setting [3] amounted to 30%. Moreover, the mortality at 50 µM under setting [4] was 100%.
For the compound `COc1cccc2c1C(=O)c1c(O)c3c(c(O)c1C2=O)C[C@@](O)(C(=O)CO)C[C@@H]3O[C@H]1C[C@H](N)[C@H](O[C@@H]2CCCCO2)[C@H](C)O1` [Pirarubicin, reference compound], the killing at 0.5 µM (read-out: Anti-echinicoccus activity, Dose confirmaiton 0.5uM, second-stage dose-response, 0.5 μM, PSCs) stood at 100%. In addition, where the note is “read-out: Anti-echinicoccus activity, Dose confirmaiton 2uM, second-stage dose-response, 2 μM, PSCs”, the killing at 2 µM stood at 100%. In addition, the killing at 10 µM (read-out: Anti-echinicoccus activity, Dose confirmaiton 10uM, second-stage dose-response, 10 μM, PSCs) was 100%. The killing at 50 µM is, setting by setting: (read-out: Anti-echinicoccus activity, Dose confirmaiton 50uM, second-stage dose-response, 50 μM, PSCs) 100%; (read-out: Anti-echinicoccus activity, Initiate hits 50uM, primary screen, 50 μM, PSCs, 3-day incubation, PI staining (death rate of PSCs)) 100%.
As to `O=C(/C(=C/c1ccc(Cl)cc1Cl)n1ccnc1)c1ccc(Cl)cc1` [TS-80], under setting [1], the mortality at 0.5 µM worked out at 0%. For the same compound, the mortality at 2 µM under setting [2] stood at 0%. The mortality at 10 µM under setting [3] is 50%. Under setting [4], the mortality at 50 µM was 100%.
As for `CCCCCOc1ccc(C(O)(CCN(C)C)C2CCCCC2)cc1` (stereo not shown) [0/FCOCMDJFHNPRQP-UHFFFAOYSA-N], under setting [1], the mortality at 0.5 µM was determined as 0%. Further, the mortality at 2 µM under setting [2] is 0%. Besides, the mortality at 10 µM under setting [3] stood at 0%. Also, the mortality at 50 µM under setting [4] amounted to 100%.
